These results are taken from patent publication US20260124315A1, “CATALYST AUGMENTED TARGET SPECIFIC POLYPEPTIDE” (TECHNISCHE UNIVERSITAT BERLIN, priority 2022, published 2026).

In assay [1] the target is T1, Her2/ERBB2 Protein, Human, Recombinant (ECD), Biotinylated (Homo sapiens, UniProt P04626).
T1 construct: Her2/ERBB2 Protein, Human, Recombinant (ECD), Biotinylated; purchased SinoBiological 10004-HCCH—B
Description: Fluorogenic catalysis on HER2-biotinylated streptavidin beads. The settings on record: NB—Pd bound to HER2-SAV-beads, washed, 24 h. The method, then:
An increment of the fluorescence signal was observed by the resorufin release.
On HER2-biotinylated streptavidin beads. 6 μg of Her2/ERBB2 Protein, Human, Recombinant (ECD), Biotinylated (SinoBiological, 10004-HCCH—B) were dissolved in 100 μL PBS. […] The resin suspension was shaken at 700 rpm and 37° C. in a Thermomixer for 1 h. Biotin (200 μM) in PBS (100 μL) was added and incubated for 30 min at 37° C., 700 rpm in the Thermomixer to block free Streptavidin. Resin was washed twice with PBS and NB—Pd (1.6 nmol, 100 μL) was added. After incubation at 700 rpm and 37° C. in a Thermomixer for 1 h, resin was washed twice with PBS and ProRes (100 μM) in PBS (100 μL) was added. Resin was incubated at 1200 rpm and 37° C. in a Thermomixer for 24 h. Fluorescence was measured in a FLUOstar Omega multilabel reader (Ex/Em: 540/590 nm). Sensor ProRes alone (100 μM), or in the presence of Streptavidin Sepharose resin pre-incubated with NB—Pd, were used as negative controls and fluorescent dye Resorufin (100 μM) was used as a reference control. Reactions were done in triplicates.
Streptavidin beads (SAV) were treated with the biotinylated HER2 protein (HER2-SAV-beads). Then, HER2-SAV-beads were incubated with the NB—Pd for 1 h at 37° C. in a Thermomixer. After washing with PBS, the sensor (ProRes) was added and the reaction was monitored after 24 h using a multilabel fluorescence reader.

Another assay deals with T2, HER2 (Homo sapiens, UniProt P04626).
T2 construct: endogenous in cells; host or cells: SK-BR-3
The settings on record: published Kd of HER2 nanobody; cited from earlier work.

B1: NB—Pd: HER2 nanobody-HRGDH fusion complexed with Pd after incubation with Pd(OAc)2 at molar ratio 1:1 (conjugate)
VHH: QVQLQESGGGSVQAGGSLKLTCAASGYIFNSCGMGWYRQSPGRERELVSRISGDGDTWHKESVKGRFTISQDNVKKTLYLQMNSLKPEDTAVYFCAVCYNLETYWGQGTQVTVSSGGGGSHRGDHENLYFQSHHHHHH
As to B1, the “fluorescence after catalysis of ProRes on HER2-SAV-beads” value in assay [1] is recorded as “Increased fluorescence”.

B2: NB: HER2 nanobody fused via GGGGS spacer to the peptide HRGDH; the Kd is the published value of HER2-NB (protein)
VHH: B1 VHH
What is called Kd is the concentration at which binding is half-saturated. Take B2: the Kd with HER2 is 4.7 nM.
